The record followed here is paper PMC11305080 (Cell reports, 2024).

The assay concerns the target T1, HIT01-K21Q-R218E (cleavage-resistant variant of HIT01) (Designed: Pangasianodon hypophthalmus …, UniProt A0A5N5LAK0;PRINTED, chimera).
T1 construct: also called HIT01-K21Q-R21E; HIT01-R21Q-R218E; source: Expi293 cells, transient transfection, purified (Ni-NTA, strep chromatography, SEC); not shown: His tag, C-terminal, kept
The experiment in a line: BLI; PCSK9 or variant proteins (50 μg/mL in PBS) loaded onto Ni-NTA biosensors by their C-terminal histidine tags; antibody Fab in solution (0.00625–0.4 μM); 1x Kinetics Buffer; association 300 s, dissociation 600 s. Particulars: both partners purified. Background: Biolayer interferometry detects binding as a change in optical thickness at a sensor tip.

B1: 1D05 Fab (Fab, V domains shown)
VH: QVQLVQSGAEVKKPGSSVKVSCKASGGTFNSHAISWVRQAPGQGLEWMGGINPILGIANYAQKFQGRVTITADESTSTAYMELSSLRSEDTAVYYCARHYEIQIGRYGMNVYYLMYRFASWGQGTLVTVSS
VL: DIQMTQSPSSLSASVGDRVTITCRASQGIRSALNWYQQKPGKAPKLLIYNGSTLQSGVPSRFSGSGSGTDFTLTISSLQPEDFAVYYCQQFDGDPTFGQGTKVEIK
notes: variable region of 1D05 as in PDB 2XTJ, on a human IgG constant region with an HRV3C cleavage site in the hinge; Fab part after cleavage; variable region of 1D05 as in PDB 2XTJ, on a human constant region; Variable regions were synthesised and subcloned into pVRC8400 vectors containing human IgG constant regions; source: Expi293F cells, co-transfected heavy and light chain; IgG purified, cleaved …
B1: the “fold higher affinity than to human PCSK9” value was above 8 fold.
